Converted amounts (≈) assume the structure as drawn.
Columns and labels:
[1] = system: B. subtilis; assay type: cell-based, Bacillus subtilis; conditions: agent alone
Method: (§1) For the antibacterial activity, a minimal inhibitory concentration (MIC) of a peptide in which fungus bodies were not split in an MH medium with sufficient nutrients was measured.
(§2) Specifically, the strains described in the following [Table 2] were purchased and diluted with an MH medium such that the number of bacteria was 2×10^6 colony-forming units (CFUs), 100 μl of each of the diluted strains was aliquoted into a 96-well microtiter plate, and then 100 μl of a peptide solution diluted with the MH medium (solution diluted stepwise at 2: 1) was added to each well.

[2] = system: S. typhimurium; assay type: cell-based, Salmonella typhimurium; conditions: agent alone
Method: as §1, §2

[3] = system: E. coli; assay type: cell-based, Escherichia coli; conditions: agent alone, MH medium, 37° C., 16 hours
Method: as §1, §2

[4] = system: P. aeruginosa; assay type: cell-based, Pseudomonas aeruginosa; conditions: agent alone
Method: as §1, §2

[5] = system: S. aureus; assay type: cell-based, Staphylococcus aureus; conditions: agent alone
Method: as §1, §2

CC[C@H](C)[C@H](NC(=O)CN)C(=O)NCC(=O)N[C@@H](C)C(=O)N[C@H](C(=O)N[C@@H](CC(C)C)C(=O)N[C@@H](CCCCN)C(=O)N[C@H](C(=O)N[C@@H](CC(C)C)C(=O)N[C@H](C(=O)N[C@H](C(=O)NCC(=O)N[C@@H](CC(C)C)C(=O)N1CCC[C@H]1C(=O)N[C@@H](C)C(=O)N[C@@H](CC(C)C)C(=O)N[C@H](C(=O)N[C@@H](CO)C(=O)N[C@@H](Cc1c[nH]c2ccccc12)C(=O)N[C@H](C(=O)N[C@@H](CCCCN)C(=O)N[C@@H](CCCNC(=N)N)C(=O)N[C@@H](CCCCN)C(=O)N[C@@H](CCCNC(=N)N)C(=O)N[C@@H](CCC(N)=O)C(=O)N[C@@H](CCC(N)=O)C(N)=O)[C@@H](C)CC)[C@@H](C)CC)[C@@H](C)O)[C@@H](C)O)C(C)C)C(C)C [Melittin, reference compound]
Minimal inhibitory concentration MIC [1]: 32 µg/mL (≈ 11.2 µM)
Minimal inhibitory concentration MIC [2]: 32 µg/mL (≈ 11.2 µM)
Minimal inhibitory concentration MIC [3]: 16 µg/mL (≈ 5.62 µM)
Minimal inhibitory concentration MIC [4]: 8 µg/mL (≈ 2.81 µM)
Minimal inhibitory concentration MIC [5]: 8 µg/mL (≈ 2.81 µM)
